Patent US12037372B2, “Bioactive peptides derived from snakes” (Universiteit Leiden, priority 2018, dated 2024)

Columns and labels:
human erythrocytes = test: Hemolysis assay; assay type: cell-based; details: for Hemolysis (μM) in 50% plasma: highest peptide concentration that resulted in <5% erythrocyte lysis, 1 hour, human plasma; for concentration still safe for erythrocytes: 50% v/v human plasma
normal human melanocytes = test: Selective killing of melanoma cells (LDH release), normal cells; assay type: cell-based; details: 51.2 μM; 4 hours
Description: Normal melanocytes (up to 4 passages) and 4 melanoma cell lines (mel 11.11, mel 12.13, mel 05.18, mel 09.03) were cultured overnight 37° C. at a concentration of 2×10^4 cells/well in 100 μl of DMEM supplemented with 7.5% (v/v) fetal calf serum in a humidified 5% CO2 atmosphere. The next day 75 μl of medium were removed and then 25 μl of double concentrated peptide (SP4 and SP27) solutions prepared in DMEM supplemented with 0.5% human serum were added. After an incubation for 4 hours in a humidified 5% CO2 atmosphere at 37° C. the supernatant was removed for measurement of the LDH release using the Roche kit. The background LDH release by the cells, determined by exposing the cells to DMEM with 0.5% serum without peptide, was subtracted from the values for the peptide-exposed cells. Finally, the results ae expressed as the percentage LDH release using the values found for triton-exposed cells as 100%.

erythrocytes = details: at 100 μg/ml; PBS alone; Cai et al., 2018; cited from earlier work
[1] = Table 5, highest concentration lysing less than 5% of human erythrocytes in human plasma within 1 hour
[2] = Table 6, highest concentration lysing less than 5% of human erythrocytes in human plasma within 1 hour

Row | Substance | Hemolysis (μM) in 50% plasma (human erythrocytes) [µM] | also measured
1 | RFKKFFRKVKKGVHRYFKKNKFYI [SP27-64] | – | Toxicity (human erythrocytes; [1]): 204.8 µM
2 | RKVKKGVHRYFKKNKFYIAATIPY [SP27-70] | – | Toxicity (human erythrocytes; [1]): ≥408.6 µM
3 | KRFKNFFKRVRDGIRDFFRKNHIVIGVNFRF [SP31] | 102.4 | –
4 | KRFKKFFKKVKKSVKKRLKKIFKKPIVIGVSIPF [SP25] | 102.4 | –
5 | FRKVKKGVHRYFKKNKFYIAATIP [SP27-69] | – | Toxicity (human erythrocytes; [1]): 409.6 µM
6 | VKKGVHRYFKKNKFYIAATIPYYG [SP27-72] | – | Toxicity (human erythrocytes; [1]): 204.8 µM
7 | KRVKRFKKFFKKVKKSVKKRLKKIFKKPMVIGVTIPF [SP2] | 204.8 | –
8 | KRFAGFFQFVIGVSFHF [SP21] | 204.8 | –
9 | KRFKDFFHRIRDGVRDFFRNNHFVCGVNFRF [SP17] | 51.2 | –
10 | KRFKKFFKKVKKSVKKRLKKIFKKPMVIGVSIPF [SP7] | 204.8 | –
11 | KRFKKFFRKVKKGVHRYFKKNKFYIAATIPYYG [SP27] | 102.4 | Toxicity (human erythrocytes; [1]): 102.4 µM; Toxicity (human erythrocytes; [2]): 102.4 µM; Toxicity (human erythrocytes; highest concentration of the peptide that lyses less than 5% of the human erythrocytes in human plasma within 1 hour): 102.4 µM; Toxicity (human erythrocytes; highest concentration that lyses less than 5% of the human erythrocytes in human plasma within 1 hour): 102.4 µM; viability of normal melanocytes (LDH release) (normal human melanocytes): did not affect the viability
12 | KFFRKVKKGVHRYFKKNKFYIAAT [SP27-67] | – | Toxicity (human erythrocytes; [1]): ≥409.6 µM
13 | KRFKKFFRKIKKGFRKIFKKTKIFIGGTIPI [SP15] | 204.8 | concentration still safe for erythrocytes (human erythrocytes): around 800 μg/ml; hemolysis (erythrocytes): 6.63%
14 | KRFKKFFMKLKKSVKKRVMKFFKKPMVIGVTFPF [SP12] | 51.2 | –
15 | KRFKKFFKKVKKSVKKRLKKIFKKPMVIGVTFPF [SP9] | 204.8 | –
16 | KRFKKFFKKVKKSVKKRLKKIFKKPMVIGVTIPF [SP6] | 204.8 | –
17 | KKFFRKVKKGVHRYFKKNKFYIAA [SP27-66] | – | Toxicity (human erythrocytes; [1]): ≥409.6 µM
18 | KRFKKFFKKLKNSVRKCAKKFFKKLRVIRVSIPF [SP24] | 102.4 | –
19 | FFRKVKKGVHRYFKKNKFYIAATI [SP27-68] | – | Toxicity (human erythrocytes; [1]): 204.8 µM
20 | KVKKGVHRYFKKNKFYIAATIPYY [SP27-71] | – | Toxicity (human erythrocytes; [1]): 204.8 µM
21 | KRFQNFFRELEKKFREFFRVYRITIGATIRF [SP16] | 204.8 | concentration still safe for erythrocytes (human erythrocytes): around 800 μg/ml; hemolysis (erythrocytes): 9.14%
22 | KRFLRLVVFKKLKKGLRKLFKKKKIVTGHVTS [SP28] | 204.8 | –

Row | Substance | Hemolysis (μM) in 50% plasma (human erythrocytes) [µM] | also measured
23 | KRFKKFFKKIKTGIKKVIKKTKQAIASHFRW [SP18] | 204.8 | –
24 | KRFKKFFKKLKNNVKKRVKKFFRKPRVIGVTIPF [SP4] | 204.8 | hemolysis (human erythrocytes; at 851 μg/ml): < 5%; viability of normal melanocytes (LDH release) (normal human melanocytes): did not affect the viability
25 | KRFRKFFKRLLKSVRRAVKKFRKKPRLIGLSTLL [SP8] | 102.4 | –
26 | KRFKKFFRKLKKSVKKRVKKFFKKPRVIGVTIPF [SP11] | 204.8 | –
27 | KRFLRVFKKLKRGIRKLFKKKKIVTGPLTS [SP19] | 204.8 | –
28 | KRFKKFLKKLKKSVKKHVKEFFKKPRVIGV [SP35] | 204.8 | –
29 | AREKSFLQKMKVILQLSSQDQIQAF [SP20] | 204.8 | –
30 | KRFKKFFKKAKKSVKKRLKKFFNKTRVIGVSIPF [SP14] | 204.8 | –
31 | KRFKKFFKKIKNGIKTFIKKTQMAIGSHFRW [SP30] | 204.8 | –
32 | KRFVGSFQLVVGVSFRF [SP34] | 204.8 | –
33 | FKKFFRKVKKGVHRYFKKNKFYIA [SP27-65] | – | Toxicity (human erythrocytes; [1]): 204.8 µM
34 | KRFLRVFRKLKKGLKKLFKRKKVVTGYVTA [SP32] | 102.4 | –
35 | KRFKKFFKKLKNSVKKRVKKFFRKPRVIGVTFPF [SP3] | 204.8 | –
36 | KRFKKFFRKVKKGVHRYFKKNKFY [SP27-63] | – | Toxicity (human erythrocytes; [1]): ≥409.6 µM; Toxicity (human erythrocytes; [2]): ≥409.6 µM
37 | DQVERGNFAKDGSKARVKKSLTKWVKFLKKIIAKLGRPLIGF [SP22] | 102.4 | –
38 | KRFKNFFKKIRDGIHEFIHNNRFVIGVNFRF [SP29] | 102.4 | –
39 | KRFKKFFKKIKNSVKKRVKKFFKKPRVIGVSIPF [SP23] | 204.8 | –
40 | KRFTFYKKVKKNVENLLNKFFKKLRVIGDSIPF [SP26] | 102.4 | –
41 | KRFKKFFRKLKKSVKKRAKEFFKKPRVIGVSIPF [SP5] | 204.8 | –
42 | KRFAGFFQFVVGVSFRF [SP33] | 204.8 | –
43 | RKFKKSFKKIRKWVKKATKIAGEVAVEILITKVILGSVGL [SP1] | 51.2 | –
